JMJD2E inh – inhibitors of human JMJD2E histone demethylase; B2RXH2; JMJD2E catalytic domain, FDH-coupled NADH fluorescence (FDH is formaldehyde dehydrogenase); Potency, µM (highest dose often 57.1 µM), without a hit: at the highest dose activity change, negative = inhibition, hits mostly inhibitors; 230,000 tested, 1.6% active; AID 2147; active = well fitted inhibition curve with a large enough effect, not every such curve was filed as active; inconclusive = small, poorly fitted or top-dose-only effect, or another doubt; inactive = no such curve, though single readings can be large or run the other way;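 note: potency is the fitted concentration of half-maximal effect; 0% = wells with enzyme and -100% = buffer wells without enzyme; nearly all actives have a fitted effect of over 50% in size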
Sfp PPTase inh – qHTS Assay for Inhibitors of Bacillus subtilis Sfp phosphopantetheinyl transferase (PPTase); actives 3.5% (n = 310,000); AID 1490, 2009; Biochemical Sfp PPTase activity, qHTS; Potency, µM, for inactives: max response, negative = inhibition, usual class: inhibitors; 4'-phosphopantetheinyl transferase ffp (Bacillus subtilis), Q9F4F7; active means well fitted inhibition curve with a large enough effect; inconclusive means small, poorly fitted or top-dose-only effect, or another doubt; inactive means no such curve, though single readings can be large or run the other way;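 further: the enzyme is Sfp with the accession as filed and its product quenches rhodamine fluorescence; potency means the concentration at half of the fitted maximal effect; 0% = enzyme reaction without inhibitor and -100% = no enzyme wells; top concentration of the series not given in the record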
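Buffer: 50 mM Hepes-Na pH 7.6, 10 mM MgCl2, 0.01% Nonidet P-40, 0.01% BSA. Enzyme 15 nM, pre-exposed to compound 15 min; substrates then added and fluorescence change tracked over 30 min.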
ALDH1A1 block – ALDH1A1 (human) enzyme inhibition | 220,000 tested, 7.3% active | AID 1030 | Purified ALDH1A1, NADH fluorescence, propionaldehyde substrate | P00352 | Potency, µM (highest dose often 75.3 µM), for the others: at the top dose activity, negative = inhibition, most hits filed as inhibitors; active = well fitted inhibition curve with a large enough effect, not every such curve was filed as active; inconclusive = small, poorly fitted or top-dose-only effect, or another doubt; inactive = no such curve, though single readings can be large or run the other way;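 note: potency is the fitted concentration of half-maximal effect; plate controls were no enzyme wells and a reference inhibitor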
miR-21 FLuc – raises the signal of a miR-21 reporter | HeLa miR-21 FLuc reporter, luciferase, 48 h | Potency, µM (doses to about 38.3 µM), without a hit: at the top dose reporter change, positive = more light | 340,000 tested, under 10 active | AID 2288; active = well fitted rising curve with a large enough effect; inconclusive = small, poorly fitted or top-dose-only effect; inactive = no such curve, though single readings can be large or run the other way;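 note: % of control where 0% means no effect; miR-21 action dims this reporter so a rising signal means less miR-21 action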
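Using DMEM plus 10% FBS, HeLa miR-21-FLuc cells are incubated with test compounds (final up to about 40uM) for 48 hours; firefly luciferase signal is then imaged following reagent-mediated lysis.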
G9a inh – blocks human histone lysine methyltransferase G9a; Potency, µM (series often up to 102 µM), inactives show at the highest dose activity, negative = inhibition, usual class: inhibitors; 350,000 tested, 8.8% active; AID 504332; G9a H3K9 monomethylation, AlphaScreen, 2 h; note: potency is the fitted concentration of half-maximal effect; % is set by controls: 0 for no effect and ±100 for the full control effect; nearly all actives have a fitted effect of over 75% in size
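Quantitative HTS format: methyltransferase activity on a biotin-tagged H3K9 peptide is measured by AlphaScreen, using a rabbit anti-monomethyl-H3K9 antibody with streptavidin donor and anti-IgG acceptor beads. Final levels are 20 nM enzyme, 500 nM peptide, 20 uM SAM; 2 h RT.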
LMNA splice mod – modulators of lamin A splicing | 200,000 tested, 0.01% active | AID 1487 | Potency, µM (titrated, usually from 46.1 µM), without a hit: top-dose ratio change, negative = inhibition, most hits filed as inhibitors | HeLa LMNA splicing GFP/RFP minigene ratio, 48 h; active = well fitted inhibition curve with a large enough effect in the signal ratio, with a control signal flat, not every such curve was filed as active; inconclusive = small, poorly fitted or top-dose-only effect, or effect the other way, or a change in a side signal; the % refers to the signal ratio; note: potency is the fitted concentration of half-maximal effect; % is set by controls: 0 for no effect and ±100 for the full control effect
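S3 HeLa cells stably expressing lamin A-EGFP splicing minigene plus DsRed2, 600 cells/well, 48 h compound exposure at 37C. Laser-scanning cytometry; analysed as GFP (500-530 nm)/RFP (575-640 nm) total intensity ratio; 0.5% DMSO vehicle.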
Numbers without * were called inactive; u = inconclusive; x = no result; ! = not active in a repeat; [ ] = dose if it differs, or a comment. This is a sample that favours compounds with a hit; in the whole collection about 13% have one here. Unless noted, calls come from the whole dose curve; as a rule, active = well fitted curve in the direction sought with a large enough effect; inconclusive = small, poorly fitted or top-dose-only effect, or another doubt; inactive = no such curve, though single readings can be large; an effect the other way counts as inactive or inconclusive.

[1] N#Cc1c2n(c(=O)[nH]c1=O)CCCCC2
[2] N#CC1=C(N2CCCCC2)c2cc3c(n2C1=O)CCCC3
[3] Clc1ccccc1CNc1ncnc2c1nc1n2CCCC1
[4] CN(C)CCN(C(=O)CCc1ccccc1)c1nc2c(F)cc(F)cc2s1
[5] COc1cc2ccccc2cc1C(=O)N(CCN(C)C)c1nc2ccc(Br)cc2s1
[6] CCN(CC)CCN(C(=O)CCOc1ccccc1)c1nc2c(F)cc(F)cc2s1
[7] COc1cc2ccccc2cc1C(=O)N(CCN(C)C)c1nc2c(F)cc(F)cc2s1
[8] CN(C)CCCN(C(=O)CCc1ccccc1)c1nc2ccc(Br)cc2s1

| Assay by compound | 1 | 2 | 3 | 4 | 5 | 6 | 7 | 8 |
| --- | --- | --- | --- | --- | --- | --- | --- | --- |
| JMJD2E inh | 8.1% | 1.6% | x | -3.8% | x | 5.3% | x | -9.8% |
| Sfp PPTase inh | 11.9% | 2.0% | x | 1.7% | -22.7% | -8.7% | -24.4% | u |
| ALDH1A1 block | 8.2% | 8.91µM* | x | -2.1% | x | -1.4% | x | -7.8% |
| miR-21 FLuc | -14.9% | -25.1% | 19.8% | -12.0% | 9.9% | -3.0% | -12.3% | u |
| G9a inh | 12.6%[59 µM] | 44.7µM* | 2.1%[59 µM] | 50.1µM* | 25.1µM* | u | 31.6µM* | 79.4µM* |
| LMNA splice mod | -6.0% | u | u | 20.4%[9.22 µM] | x | -2.5%[9.22 µM] | x | u |

[9] CCC(=O)N1CCc2cc(S(=O)(=O)NC(CC(C)C)C(=O)NCc3ccc(C)cc3)ccc21 (stereo unspecified)
[10] CC(=O)NCc1cccc(CNC(C)=O)n1
[11] CNC(=O)OCc1cccc(COC(=O)NC)n1
[12] COc1ccc(C2/C(=C(\O)c3cc(C)ccc3C)C(=O)C(=O)N2CCN(C)C)cc1OC (stereo unspecified)
[13] COc1ccc(/C(O)=C2\C(=O)C(=O)N(CCN(C)C)C2c2cc(OC)c(OC)c(OC)c2)c(C)c1 (stereo unspecified)
[14] CCCOc1ccc(C2/C(=C(/O)c3ccc(F)cc3)C(=O)C(=O)N2CCCN(C)C)cc1 (stereo unspecified)
[15] CCCOc1cccc(C2/C(=C(/O)c3ccc(OC)cc3)C(=O)C(=O)N2CCN(C)C)c1 (stereo unspecified)
[16] CCCOc1ccc(/C(O)=C2\C(=O)C(=O)N(CCCOC)C23C(=O)N(C)c2ccccc23)cc1 (stereo unspecified)

| Assay by compound | 9 | 10 | 11 | 12 | 13 | 14 | 15 | 16 |
| --- | --- | --- | --- | --- | --- | --- | --- | --- |
| JMJD2E inh | x | 2.7% | -3.7% | -4.7% | 7.2% | -0.1% | -10.8% | 1.7% |
| Sfp PPTase inh | x | 10.7% | 13.6% | -19.2% | 12.8% | 4.5% | -0.2% | 1.8% |
| ALDH1A1 block | x | -7.5% | 3.8% | -9.6% | 28.2µM* | 2.6% | 15.8µM* | -7.2% |
| miR-21 FLuc | -5.7% | -5.9% | -1.3% | -3.1% | 13.5% | -2.2% | -13.7% | 0.7% |
| G9a inh | 9.3%[59 µM] | -0.6%[12.7 µM] | 44.7µM*! | -39.4%[12.7 µM] | u | 39.8µM* | 50.1µM* | -38.1%[2.33 µM] |
| LMNA splice mod | x | -4.4% | -1.0% | -2.4% | 7.7% | -11.3% | 1.0% | -5.3% |

[17] CCCOc1ccc(/C(O)=C2\C(=O)C(=O)N(CCCN(C)C)C23C(=O)N(C)c2ccccc23)cc1 (stereo unspecified)
[18] CCCCCCCOC(=O)C[N+](C)(C)CCOC1CC2CCC1(C)C2(C)C (stereo unspecified)
[19] CC1=C(C(=O)OCc2ccccc2)C(c2ccsc2)C(C#N)=C(N)O1 (stereo unspecified)
[20] N#CC1=C(N)Oc2c(oc(CO)cc2=O)C1c1cccs1 (stereo unspecified)
[21] COc1cc(C2C(C#N)=C(N)Oc3c2oc(CO)cc3=O)cc(OC)c1OC (stereo unspecified)
[22] COc1cccc(C2C(C#N)=C(N)Oc3c2oc(CO)cc3=O)c1OC (stereo unspecified)
[23] N#CC1=C(N)Oc2c(oc(CO)cc2=O)C1c1ccsc1 (stereo unspecified)
[24] N#CC1=C(N)Oc2c(ccc3ccccc23)C1c1ccsc1 (stereo unspecified)

| Assay by compound | 17 | 18 | 19 | 20 | 21 | 22 | 23 | 24 |
| --- | --- | --- | --- | --- | --- | --- | --- | --- |
| JMJD2E inh | 4.7% | -12.7% | -14.4% | u | u | -7.5% | u | -5.3% |
| Sfp PPTase inh | -25.1% | 50.1µM* | -7.9% | 1.5% | -7.5% | -11.5% | 50.1µM* | 56.2µM* |
| ALDH1A1 block | u | -7.7% | u | -7.1% | 2.0% | 9.0% | 3.7% | -9.7% |
| miR-21 FLuc | -6.4% | u | -14.1% | 0.4% | 1.8% | -18.1% | -1.0% | -12.2% |
| G9a inh | 44.7µM* | 9.8%[59 µM] | u | 44.7µM* | u | u | 31.6µM* | 44.7µM* |
| LMNA splice mod | 4.2% | u | -5.6% | 3.8% | -7.2% | 7.0% | 2.3% | u |

[25] Cc1ccc(C(=O)NCC(=O)OC(C)C(=O)Nc2ccc(N(C)C)cc2)cc1C (stereo unspecified)
[26] Cc1ccc(C)c(N2CCN(C(=O)c3cc4ccccn4n3)CC2)c1
[27] CCOC(=O)C1=C(C)Nc2ccccc2N=C1NC(=O)/C=C/c1ccc(OC)cc1OC
[28] Cc1ccc(NC(=O)CCl)cc1S(=O)(=O)N1CCCCCC1
[29] COCCNC(=O)C1=C(N)C(C(=O)Nc2ccc(C)c(S(=O)(=O)N3CCCCC3)c2)SC1=Nc1ccc(C)cc1C (stereo unspecified)
[30] COCCNCC(=O)Nc1ccc(C)c(S(=O)(=O)N2CCCCC2)c1
[31] Cc1ccc(NC(=O)CNCCCN2CCOCC2)cc1S(=O)(=O)N1CCCCC1
[32] CCOC(=O)N1CCC(NC(=O)c2c(C)nn(-c3ccc(C)cc3)c2-n2cccc2)CC1

| Assay by compound | 25 | 26 | 27 | 28 | 29 | 30 | 31 | 32 |
| --- | --- | --- | --- | --- | --- | --- | --- | --- |
| JMJD2E inh | -20.4% | 5.0% | u | -6.1% | -1.3% | u | -8.9% | x |
| Sfp PPTase inh | 7.4% | -14.1% | 6.8% | -20.6% | -1.9% | -7.6% | 79.4µM* | x |
| ALDH1A1 block | u | u | 20µM* | 1.5µM* | 0.794µM* | -3.3% | u | x |
| miR-21 FLuc | -5.8% | -20.4% | -11.1% | u | 3.9% | -6.1% | -2.7% | -0.7% |
| G9a inh | 25.1µM* | 50.1µM* | -9.1% | u | 50.1µM* | 8.91µM* | 14.1µM* | -19.8%[59 µM] |
| LMNA splice mod | u | u | -2.4%[46 µM] | u | u | -7.4%[46 µM] | x | x |

[33] CN(C(=O)N1CCN(S(=O)(=O)c2ccccc2)CC1)c1ccccc1
[34] Cc1ccc(NC(=O)Cc2ccccc2F)cc1S(=O)(=O)N1CCCCCC1
[35] Cc1ccc(NC(=O)CNc2ccccc2N2CCCC2=O)cc1S(=O)(=O)N1CCCCC1
[36] CCOc1ccc(OCC)c(NC(=O)c2nnn(CC(=O)Nc3cc(Cl)ccc3OC)c2N)c1
[37] Cc1cc2c(SCC(=O)NCC3CCCO3)ncnc2s1 (stereo unspecified)
[38] O=C(CSc1nc(-c2ccccc2)ns1)N1CCOCC1
[39] Cc1cccc(-c2nsc(SCC(=O)N3CCCC3)n2)c1
[40] Cc1cccc(-c2nsc(SCC(=O)Nc3ccc4c(c3)OCO4)n2)c1
[41] Cc1cccc(-c2nsc(SCC(=O)Nc3nccs3)n2)c1

| Assay by compound | 33 | 34 | 35 | 36 | 37 | 38 | 39 | 40 | 41 |
| --- | --- | --- | --- | --- | --- | --- | --- | --- | --- |
| JMJD2E inh | -1.0% | x | x | x | x | -1.4% | 0.8% | 1.9% | -5.2% |
| Sfp PPTase inh | -3.1% | x | x | x | 2.9% | 39.8µM* | u | -24.1% | 50.1µM* |
| ALDH1A1 block | -7.5% | x | x | x | x | 12.6µM* | -8.3% | 0.3% | u |
| miR-21 FLuc | -3.0% | x | x | 1.9% | -2.0% | -30.2% | -41.8% | -63.9% | -28.6% |
| G9a inh | -23.9% | 8.7%[12.7 µM] | 3.16µM* | -1.9%[59 µM] | 19.6% | 8.91µM* | 39.8µM* | -77.1% | 10µM* |
| LMNA splice mod | x | x | x | x | x | -2.8%[46 µM] | -15.4% | u | 11.2% |

In the list so far, these contain bromine:
[5] COc1cc2ccccc2cc1C(=O)N(CCN(C)C)c1nc2ccc(Br)cc2s1
[8] CN(C)CCCN(C(=O)CCc1ccccc1)c1nc2ccc(Br)cc2s1

| Assay by compound | 5 | 8 |
| --- | --- | --- |
| JMJD2E inh | x | -9.8% |
| Sfp PPTase inh | -22.7% | u |
| ALDH1A1 block | x | -7.8% |
| miR-21 FLuc | 9.9% | u |
| G9a inh | 25.1µM* | 79.4µM* |
| LMNA splice mod | x | u |

Source: PubChem BioAssay
